The values that follow are results of earlier work, collected in paper PMC3440242 (Peptides, 2012).

Amino acid sequences for entries named in this document (tags omitted). Residues count along the entry.
UniProt P10082, 3-36: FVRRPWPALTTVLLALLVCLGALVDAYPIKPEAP
UniProt P49146, whole entry: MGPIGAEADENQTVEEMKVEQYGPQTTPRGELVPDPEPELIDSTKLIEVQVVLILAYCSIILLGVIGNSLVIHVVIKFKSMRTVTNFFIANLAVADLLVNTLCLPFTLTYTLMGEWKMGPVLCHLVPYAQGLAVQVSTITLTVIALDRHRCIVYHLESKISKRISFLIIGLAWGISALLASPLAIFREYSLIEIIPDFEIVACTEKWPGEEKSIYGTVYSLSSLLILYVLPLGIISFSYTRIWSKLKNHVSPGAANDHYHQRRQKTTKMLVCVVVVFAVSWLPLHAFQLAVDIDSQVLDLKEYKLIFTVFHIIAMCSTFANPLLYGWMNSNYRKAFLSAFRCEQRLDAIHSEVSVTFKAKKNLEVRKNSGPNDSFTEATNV

The data set concerns the target hPYY(3-36) 3-36 (Homo sapiens) (UniProt P10082). Nature of the data set: Scatchard. The following applies: cited from earlier work.

For the substance “neuropeptide Y Y2 receptor (from UniProt P49146)”, the Kd (commonly the constant that tells how readily two partners part at equilibrium) is 0.13 nM.
